Reference: patent US20110224247A1, “AZAISOQUINOLINONE DERIVATIVES AS NK3 ANTAGONISTS” (H. LUNDBECK A/S, priority 2010, published 2011)

By UniProt entry, the sequences of proteins in these tests, tags left out.
UniProt P29371, whole entry: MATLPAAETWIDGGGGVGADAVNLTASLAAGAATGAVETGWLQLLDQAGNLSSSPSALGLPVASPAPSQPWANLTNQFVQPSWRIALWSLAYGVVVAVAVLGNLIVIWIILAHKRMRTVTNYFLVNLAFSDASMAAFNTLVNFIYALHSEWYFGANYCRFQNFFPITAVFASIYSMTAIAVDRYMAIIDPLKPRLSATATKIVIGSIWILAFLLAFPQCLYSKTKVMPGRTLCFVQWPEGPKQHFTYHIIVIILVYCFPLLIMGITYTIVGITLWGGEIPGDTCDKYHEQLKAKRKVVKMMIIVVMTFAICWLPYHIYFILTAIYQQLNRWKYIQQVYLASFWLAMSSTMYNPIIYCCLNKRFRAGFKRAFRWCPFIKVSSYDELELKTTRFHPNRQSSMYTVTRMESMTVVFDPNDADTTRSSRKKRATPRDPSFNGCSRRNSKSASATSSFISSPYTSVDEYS

Biological target: human NK3 receptor (Homo sapiens, UniProt P29371)
Test: NK3 receptor binding assay
Details: read-out: Affinity (Ki/nM); filter-based competition binding vs ~0.05 nM 3H-AE93103, membranes of BHK cells expressing human NK3; Ki by Cheng Prusoff
Protocol: Membranepreparation: BHK cells stably expressing the human NK3 receptor were seeded in harvesting plates in Dulbeccos MEM containing GlutaMax (862 mg/l), 1 mM sodium pyruvate, 10% fetal calf serum, 1% Pen/Strep, 1 mg/ml G418 and were grown at 34° C. in a humidified atmosphere containing 10% CO2. To increase receptor expression, 10 μM trichotatin A was added to the media 24 hours before harvest of the cells at a confluency of app 90%. Prior to the harvesting, the cells were washed twice with PBS without Mg^2+ and Ca^2+ and subsequently scrapped of in 10 ml PBS pr harvesting plate. The cells suspension were centrifuged at 1500×G in three minutes before resuspension in 15 mM Tris-HCl pH 7,5 buffer containing 2 mM MgCl2; 0,3 mM EDTA and 1 mM EGTA (buffer A). The cell suspention was homogenised and subsequently centrifuged at 40000×G in 30 minutes. The membrane-pellet was resuspended in buffer A containing 250 mM sucrose, alliquoted and stored at −80° C.
Affinity assay description: The assay is performed as a filter-based competition-binding in a 50 mM Tris pH 7.4 assay buffer containing 120 mM NaCl and 3 mM MnCl2. App 0.05 nM ^3H-AE93103 was mixed with test compounds before addition of 0.15 μg of a homogenised NK3 membrane preparation in a total volume of 300 μl. […] The filter is dried and added scintillation liquid before the plate is counted in a topcounter 5 minutes pr well. […]

Ki: 330 nM
Structure (SMILES): CCCNn1c(C)c(C(=O)N[C@H](c2ccccc2)C2CC2)c2cnccc2c1=O
